Results published in patent US10265321B2, “Uses of salt-inducible kinase (SIK) inhibitors” (Dana-Farber Cancer Institute, Inc., priority 2014, dated 2019).

The chains behind the UniProt entries cited, without tags or fusion partners.
UniProt Q9Y2K2, whole entry: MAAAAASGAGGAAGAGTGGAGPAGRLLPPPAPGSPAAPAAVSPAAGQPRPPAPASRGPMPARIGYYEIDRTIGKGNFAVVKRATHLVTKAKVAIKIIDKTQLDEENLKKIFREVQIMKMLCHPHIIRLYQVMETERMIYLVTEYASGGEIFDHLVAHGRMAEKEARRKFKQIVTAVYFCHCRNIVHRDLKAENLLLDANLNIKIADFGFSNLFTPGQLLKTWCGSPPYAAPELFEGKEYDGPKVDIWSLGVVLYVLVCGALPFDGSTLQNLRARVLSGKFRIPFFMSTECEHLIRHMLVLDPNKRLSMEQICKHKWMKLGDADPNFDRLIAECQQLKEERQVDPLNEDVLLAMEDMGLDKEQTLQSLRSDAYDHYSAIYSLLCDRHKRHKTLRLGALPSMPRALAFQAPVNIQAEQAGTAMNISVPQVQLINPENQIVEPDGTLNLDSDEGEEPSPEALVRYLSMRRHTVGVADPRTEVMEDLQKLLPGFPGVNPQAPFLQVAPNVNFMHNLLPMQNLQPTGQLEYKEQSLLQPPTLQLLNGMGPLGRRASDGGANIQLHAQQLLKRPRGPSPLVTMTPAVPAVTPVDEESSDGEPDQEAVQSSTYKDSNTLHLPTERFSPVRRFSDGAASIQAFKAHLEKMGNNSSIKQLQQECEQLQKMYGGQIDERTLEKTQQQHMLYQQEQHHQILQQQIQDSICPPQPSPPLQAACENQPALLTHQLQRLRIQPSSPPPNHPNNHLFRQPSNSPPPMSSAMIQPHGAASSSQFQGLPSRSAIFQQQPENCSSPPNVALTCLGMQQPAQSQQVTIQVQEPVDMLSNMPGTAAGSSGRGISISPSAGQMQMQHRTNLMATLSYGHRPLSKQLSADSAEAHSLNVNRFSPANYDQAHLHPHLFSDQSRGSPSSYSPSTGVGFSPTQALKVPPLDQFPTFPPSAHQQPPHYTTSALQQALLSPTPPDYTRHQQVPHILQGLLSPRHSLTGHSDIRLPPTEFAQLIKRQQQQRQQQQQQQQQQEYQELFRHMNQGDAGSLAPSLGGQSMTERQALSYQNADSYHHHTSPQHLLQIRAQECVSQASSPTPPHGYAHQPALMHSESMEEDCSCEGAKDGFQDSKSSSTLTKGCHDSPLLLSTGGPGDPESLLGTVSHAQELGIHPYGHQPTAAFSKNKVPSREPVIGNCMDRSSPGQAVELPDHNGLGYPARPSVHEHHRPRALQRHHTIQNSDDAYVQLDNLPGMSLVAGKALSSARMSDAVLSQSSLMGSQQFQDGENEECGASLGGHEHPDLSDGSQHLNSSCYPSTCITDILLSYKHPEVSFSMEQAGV
UniProt Q9H0K1, whole entry: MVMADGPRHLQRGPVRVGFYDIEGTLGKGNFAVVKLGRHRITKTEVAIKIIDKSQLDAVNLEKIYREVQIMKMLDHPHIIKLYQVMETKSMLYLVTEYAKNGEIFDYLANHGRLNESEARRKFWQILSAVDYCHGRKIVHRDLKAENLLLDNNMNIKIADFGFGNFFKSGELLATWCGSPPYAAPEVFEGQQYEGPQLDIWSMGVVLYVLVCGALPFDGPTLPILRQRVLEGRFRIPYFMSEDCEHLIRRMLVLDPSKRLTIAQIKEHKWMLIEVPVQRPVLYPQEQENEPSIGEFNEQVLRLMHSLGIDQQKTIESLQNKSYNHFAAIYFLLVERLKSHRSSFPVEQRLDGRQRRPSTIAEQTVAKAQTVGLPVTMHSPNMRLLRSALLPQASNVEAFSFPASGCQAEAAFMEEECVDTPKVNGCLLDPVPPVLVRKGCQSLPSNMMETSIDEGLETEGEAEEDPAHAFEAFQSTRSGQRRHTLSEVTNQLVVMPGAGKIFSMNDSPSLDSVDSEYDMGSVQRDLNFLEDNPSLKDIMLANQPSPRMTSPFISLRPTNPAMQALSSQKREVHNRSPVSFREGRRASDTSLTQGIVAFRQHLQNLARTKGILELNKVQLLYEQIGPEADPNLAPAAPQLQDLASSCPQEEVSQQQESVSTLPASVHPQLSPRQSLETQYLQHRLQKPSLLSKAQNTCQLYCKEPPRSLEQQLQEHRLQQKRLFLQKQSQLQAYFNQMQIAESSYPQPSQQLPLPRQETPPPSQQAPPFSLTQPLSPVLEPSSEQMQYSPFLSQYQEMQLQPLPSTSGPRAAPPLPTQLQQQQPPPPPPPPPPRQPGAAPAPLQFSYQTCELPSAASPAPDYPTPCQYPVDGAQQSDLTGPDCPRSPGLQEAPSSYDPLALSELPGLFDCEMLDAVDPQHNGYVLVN

Legend:
SIK3 = SIK3 (Homo sapiens, UniProt Q9Y2K2); experiment: Protein kinase assay ([γ-32P] ATP, phosphocellulose paper) against SIK3; conditions: read-out: Enzyme Inhibition IC50 SIK3
SIK2 = SIK2 (Homo sapiens, UniProt Q9H0K1); experiment: Protein kinase assay ([γ-32P] ATP, phosphocellulose paper) against SIK2; conditions: read-out: Enzyme Inhibition IC50 SIK2

Cc1cccc(C)c1OC(=O)N1CCCCOCc2cc(ccc2OCCN2CCOCC2)Nc2nccc1n2 was tested, and the IC50 (SIK3) was 176 nM and the IC50 (SIK2) was 18.9 nM.
